Literature values as cited in US8088734B2, “Oral delivery of peptides” (Unigene Laboratories Inc., priority 2003, dated 2012).

Legend:
[1] = tested on: ovariectomized rat model; details: cited from earlier work
[2] = tested on: adenylyl cyclase (AC); details: cited from earlier work

CC[C@H](C)[C@H](NC(=O)[C@H](CCC(=O)O)NC(=O)[C@H](CO)NC(=O)[C@@H](NC(=O)[C@@H](N)CO)C(C)C)C(=O)N[C@@H](CCC(N)=O)C(=O)N[C@@H](CC(C)C)C(=O)N[C@@H](CCSC)C(=O)N[C@@H](Cc1c[nH]cn1)C(=O)N[C@@H](CC(N)=O)C(=O)N[C@@H](CC(C)C)C(=O)NCC(=O)N[C@@H](CCCCN)C(=O)N[C@@H](Cc1c[nH]cn1)C(=O)N[C@@H](CC(C)C)C(=O)N[C@@H](CC(N)=O)C(=O)N[C@@H](CO)C(=O)N[C@@H](CCSC)C(=O)N[C@@H](CCC(=O)O)C(=O)N[C@@H](CCCNC(=N)N)C(=O)N[C@H](C(=O)N[C@@H](CCC(=O)O)C(=O)N[C@@H](Cc1c[nH]c2ccccc12)C(=O)N[C@@H](CC(C)C)C(=O)N[C@@H](CCCNC(=N)N)C(=O)N[C@@H](CCCCN)C(=O)N[C@@H](CCCCN)C(=O)N[C@@H](CC(C)C)C(=O)N[C@@H](CCC(N)=O)C(=O)N[C@@H](CC(=O)O)C(=O)N[C@H](C(N)=O)C(C)C)C(C)C [PTH1-31NH2]
restoration of bone loss [1]: fully active | second messenger activity [2]: only AC-stimulating activity
